One may read the Kd as the constant that tells how readily two partners part at equilibrium.

Amino acid sequences for entries named in this document (tags omitted).
UniProt A0A7I5E8W1, entry or part of it: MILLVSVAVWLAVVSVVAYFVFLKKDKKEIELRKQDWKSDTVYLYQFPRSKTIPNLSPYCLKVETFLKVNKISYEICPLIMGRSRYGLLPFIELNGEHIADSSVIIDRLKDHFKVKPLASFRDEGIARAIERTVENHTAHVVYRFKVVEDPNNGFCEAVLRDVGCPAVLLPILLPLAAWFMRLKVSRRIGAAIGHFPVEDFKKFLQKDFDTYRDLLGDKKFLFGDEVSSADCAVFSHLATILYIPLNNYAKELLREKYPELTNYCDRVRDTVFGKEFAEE

In the assay the target is rHc-HRG-2 (recombinant Hc-HRG-2) (Haemonchus contortus, UniProt A0A7I5E8W1). In words: biochemical.

On to `C=CC1=C(C)C2=Cc3c(C=C)c(C)c4[n]3[Fe]([Cl])[n]3c(c(C)c(CCC(=O)O)c3=CC3=NC(=C4)C(C)=C3CCC(=O)O)=CC1=N2` [heme], for which the Kd turned out to be 7.54 ± 0.602 µM.

The values are drawn from publication PMC6988263 (Parasites & Vectors, 2020).
